Source: PubChem BioAssay AID624256 (NMMLSC, 2012)
The list shows a part of the results, in another mix than the full data. The source made the active and inactive calls.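 The calls were made as follows: active = normalized GFP-positive differentiation at or above the plate's own cutoff, the solvent-only control mean plus 3 SD; inconclusive = no clear call, values can overlap the other calls; inactive = the rest.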

Test: induction of myeloid progenitor differentiation, primary screen, cell-based, flow cytometry, MLPCN library (AID 624256)
Conditions: ER-HoxA9 myeloid progenitors, lysozyme-GFP differentiation, at 10 µM

SMILES | outcome
O=[N+]([O-])c1cc([N+](=O)[O-])c(-n2nnc3ccccc32)c([N+](=O)[O-])c1 | inactive
CCOP(=O)(NC(=NC(C)c1ccccc1)NC(C)c1ccccc1)OCC (stereo unspecified) | inactive
Nc1ccc(CCCCOc2ccccc2)cc1.O=[N+]([O-])c1cc([N+](=O)[O-])c(O)c([N+](=O)[O-])c1 | inactive
O=P1(Nc2ccccn2)COc2ccccc2OC1 | inactive
CCC1=CC2Cc3nc4ccc(Cl)cc4c(N)c3C(C1)C2 (stereo unspecified) | inactive
O=C(O)C(O)c1ccc(N(CCCl)CCCl)cc1.c1ccncc1 (stereo unspecified) | inactive
CCOP(=O)(Nc1ccc(C)cn1)OCC | inactive
CN(CCCl)Cc1cc(Cl)c(NC2=NCCN2)c(Cl)c1 | inactive
CC(C)(C)C(=O)NC(Sc1ncccn1)C(Cl)(Cl)Cl (stereo unspecified) | inactive
O=P1(N(CCCl)CCCl)NCCC(C(F)(F)F)O1 (stereo unspecified) | inactive
Clc1n[nH]nc1-c1nn[nH][15n]1 | inactive
CN(Cc1cccnc1)C(=O)COc1ccc(Cl)c(Cl)c1.O=[N+]([O-])c1cc([N+](=O)[O-])c(O)c([N+](=O)[O-])c1 | inactive
O=[N+]([O-])c1cc([N+](=O)[O-])c(-c2cnn(-c3ccccc3)c2)c([N+](=O)[O-])c1 | inactive
COc1ccccc1CNC(=O)COC(=O)C(O)(c1ccccc1)c1ccccc1 | inactive
Cc1ccc(S(=O)(=O)N(CCCN)CCCc2c(C)nc(N)[nH]c2=O)cc1.O=[N+]([O-])c1cc([N+](=O)[O-])c(O)c([N+](=O)[O-])c1 | inactive
CC(C)/C=N\N=C(\N)N[N+](=O)[O-] | inactive
CN(C(=O)Cc1ccc(Cl)c(Cl)c1)[C@@H]1CCCC[C@H]1N1CCCC1 | inactive
CC1(CBr)Cn2c(nc3ccccc3c2=O)S1 (stereo unspecified) | inactive
Cc1nc2ccc3ccccc3c2s1.O=[N+]([O-])c1cc([N+](=O)[O-])c(O)c([N+](=O)[O-])c1 | inactive
CC1CCC(C(C)C)C(OP(=O)(Nc2ccccn2)c2ccccc2)C1 (stereo unspecified) | inactive
Cc1ccc(C(=O)OC2CN3CCC2CC3)cc1 (stereo unspecified) | inactive

SMILES | outcome
Cc1nn(-c2ccccc2)c2c1P(=O)(N1CCOCC1)N(C)C(c1ccccc1)=N2 (stereo unspecified) | inactive
COc1cc(C2NCCC3(OCCO3)C2(C)C)cc(OC)c1OC.O=[N+]([O-])c1cc([N+](=O)[O-])c(O)c([N+](=O)[O-])c1 (stereo unspecified) | inactive
CCOC(=O)C(CC)C1=NC(C)(C)Cc2ccccc21.O=[N+]([O-])c1cc([N+](=O)[O-])c(O)c([N+](=O)[O-])c1 (stereo unspecified) | inactive
CN(C)C1(CNC(=O)c2ccc(S(C)(=O)=O)cc2)CCCCC1 | inactive
CC1=C2N=C(C=C3N=C(C(C)=C4[N-][C@@](C)([C@@H]5N=C1[C@](C)(CCC(=O)NC[C@@H](C)OP(=O)([O-])O[C@H]1[C@@H](O)[C@@H](n6cnc7cc(C)c(C)cc76)O[C@@H]1CO)[C@H]5CC(N)=O)[C@@](C)(CC(N)=O)[C@@H]4CCC(N)=O)[C@@](C)(CC(N)=O)[C@@H]3CCC(N)=O)C(C)(C)[C@@H]2CCC(N)=O.[C-]#N.[Co+3] | inactive
O=[N+]([O-])c1cc([N+](=O)[O-])c(Nc2nnnn2CCO)c([N+](=O)[O-])c1 | inactive
CCCC1OP(=O)(Nc2ccccc2)OCC1CC (stereo unspecified) | inactive
O=C(/C=C/c1ccccc1)OC1CN2CCC1CC2 (stereo unspecified) | inactive
COc1ccccc1OP(C)(=O)Nc1c(C)cccc1C (stereo unspecified) | inactive
CN1CCCCC1COC(=O)C1(O)c2ccccc2CCc2ccccc21 (stereo unspecified) | inactive
O=P1(Nc2ncccn2)COc2ccccc2OC1 | inactive
CCCOc1ccc(NP(C)(=O)Oc2ccc(Cl)cc2)cc1 (stereo unspecified) | inactive
Nc1cccc([As](=O)(O)c2ccccc2)c1 | inactive
CP(=O)(Nc1ccc(SC(F)(F)F)cc1)Oc1ccccc1 (stereo unspecified) | inactive
COc1ccc(-c2ccccn2)cc1.O=[N+]([O-])c1cc([N+](=O)[O-])c(O)c([N+](=O)[O-])c1 | inactive
Cc1ccc(OCC(=O)OC2CN3CCC2CC3)cc1 (stereo unspecified) | inactive
O=[As](O)(c1cccs1)c1cccs1 | inactive
O=P1(Nc2ccc(Br)cn2)COc2ccccc2OC1 | inactive
NS(=O)(=O)c1cccc(NC(=O)COC(=O)C(O)(c2ccccc2)c2ccccc2)c1 | inactive
O=P(Nc1nccs1)(Oc1ccccc1)Oc1ccccc1 | inactive
O=P(Nc1nccs1)(c1ccccc1)c1nc2ccccc2s1 (stereo unspecified) | inactive

SMILES | outcome
CCOP1(=S)c2c(C)nn(CCC#N)c2N=C(c2ccccc2F)N1C (stereo unspecified) | inactive
O=C(O)c1cccc(Nc2c([N+](=O)[O-])cc([N+](=O)[O-])cc2[N+](=O)[O-])c1 | inactive
CS(=O)(=O)c1cc([N+](=O)[O-])c2no[n+]([O-])c2c1 | inactive
Nc1ccccc1[As](=O)(O)c1ccccc1 | inactive
O=C(O)COc1ccc([As](=O)(O)O)cc1[N+](=O)[O-] | inactive
NC(=O)Nc1ccc([As](=O)(O)O)cc1 | inactive
CN(C(=O)Cc1ccccc1)[C@@H]1CC[C@]2(CCCO2)C[C@H]1N1CCCC1 | inactive
CCOP1(=S)c2c(C)nn(CCC#N)c2N=C(c2ccc(F)cc2)N1C (stereo unspecified) | inactive
N#CCCN(C(=O)COC(=O)C(O)(c1ccccc1)c1ccccc1)c1ccc(F)cc1 | inactive
CC1=NCCc2c1[nH]c1ccccc21.O=[N+]([O-])c1cc([N+](=O)[O-])c(O)c([N+](=O)[O-])c1 | inactive
CN(C(=O)Cc1ccc(Cl)c(Cl)c1)[C@H]1CC[C@@]2(CCCO2)C[C@@H]1N1CCCC1 | inactive
O=[N+]([O-])c1ccc2c(c1)nnn2O | inactive
O=C(OC1CN2CCC1CC2)c1ccc(Cl)cc1 (stereo unspecified) | inactive
COc1ccccc1OP(C)(=O)Nc1cccc(Br)c1 (stereo unspecified) | inactive
CS(=O)(=O)c1ccc(Cl)c(NC(=O)COC(=O)C(O)(c2ccccc2)c2ccccc2)c1 | inactive
O=[As](O)(O)c1cccnc1 | inactive
COc1cc(C(=O)NCC2(N3CCOCC3)CCCCC2)cc(Cl)c1OC(C)C | inactive
Cc1cc(C)cc(OP(C)(=O)Nc2ccc(C)cc2C)c1 (stereo unspecified) | inactive
Cc1cccc(OCC(=O)OC2CN3CCC2CC3)c1 (stereo unspecified) | inactive
